logP: 3.9
Structure (SMILES): CC(C)c1nc(CN(C)C(=O)N[C@H](C(=O)N[C@@H](Cc2ccccc2)C[C@H](O)[C@H](Cc2ccccc2)NC(=O)OCc2cncs2)C(C)C)cs1

Source: the SangsterLogP compilation
